Apparent affinities of Ab-14 variants for a coronavirus HR2 peptide

Target peptide (SARS-CoV-2 spike, HR2 region): PDVDLGDISGINAS

The variants keep the light chain, the linker and the frameworks of Ab-14 (scFv order VH, the linker GGGGSGGGGSGGGGS, VL).
VH: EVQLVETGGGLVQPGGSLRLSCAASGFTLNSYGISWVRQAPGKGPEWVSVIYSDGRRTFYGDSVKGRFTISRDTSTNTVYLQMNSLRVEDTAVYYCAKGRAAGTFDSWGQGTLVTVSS
VL: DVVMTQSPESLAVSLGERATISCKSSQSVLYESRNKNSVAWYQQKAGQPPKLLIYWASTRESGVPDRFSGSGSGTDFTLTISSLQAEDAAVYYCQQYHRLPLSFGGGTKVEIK

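The starting antibody came from a phage panning campaign against this peptide. The library (AAYL49) carries one to three amino acid substitutions per variant, with no insertions or deletions. AlphaSeq pools MATa yeast showing the antibodies with MATalpha yeast showing the peptide. Mating (16 h, 30 °C) was followed by selection of diploids and sequencing of their barcodes. Each replicate has its own calibration line, from reference interactions of the BCL2 family. Mating was done three times.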

Positions count from residue 1 of the parent VH; S31N puts N in place of S.
Affinities are written as log10 Kd with Kd in nM; a lower number is a better binder.
Averages over replicates are reported, and they cover detected replicates only.
"ND" marks a missing value. The strain was present, yet no cells mated with the target were sequenced in that replicate, which points to weak or no binding.
In this assay the parent's reference entry averaged 0.65; its copy inside this library read 4.11 (one replicate of three).

changes | replicates, log10 nM | mean, log10 nM | control signals
S31N/Y60V/K65N | ND ND ND | ND | 0 of 9
Y52P/K65F/T104S | 4.55 5.14 4.50 | 4.73 | 4 of 9 (4.84)
V50E/T58G/G99L | 3.88 2.84 4.59 | 3.77 | 0 of 9
I51F/F59N/S107G | ND ND ND | ND | 0 of 9
G33W/F59W/F105P | ND ND ND | ND | 0 of 9
G26R/Y60G/R100T | ND ND ND | ND | 1 of 9 (2.82)
F27R/Y52C/S53R | 5.07 4.07 ND | 4.57 | 4 of 9 (3.74)
G26C/L29W/G103C | 6.35 ND ND | 6.35 | 4 of 9 (4.46)
T28R/Y52C/D106H | 4.97 4.92 ND | 4.94 | 0 of 9
N30A/I51A/R100P | ND ND ND | ND | 2 of 9 (3.68)
T58W/F59T/Y60A | ND ND ND | ND | 0 of 9
D54L/Y60K/D62C | ND ND ND | ND | 0 of 9
F59G/G61T/K65G | 2.58 2.41 2.48 | 2.49 | 0 of 9
S35Q/V64S/G103K | ND 4.97 ND | 4.97 | 0 of 9
G33K/D54G/G61P | ND ND ND | ND | 1 of 9 (2.52)
V50T/F59W/F105R | ND 3.25 ND | 3.25 | 1 of 9 (3.26)
F27I/I51R/A101G | ND ND 4.00 | 4.00 | 1 of 9 (3.61)
T28S/G55R/D62N | 1.73 ND ND | 1.73 | 1 of 9 (3.07)
F27Y/S35V/Y60N | ND ND ND | ND | 1 of 9 (3.80)
Y60I/V64W/S107I | ND 4.93 3.66 | 4.29 | 1 of 9 (2.83)
Y60C/A102C | 3.08 ND ND | 3.08 | 0 of 9
Y32F/D54Y/D62R | 6.34 5.48 5.05 | 5.62 | 1 of 9 (5.41)
V50Q/G55Y/R100I | ND ND ND | ND | 1 of 9 (3.76)
L29D/F105N/S107I | ND ND 6.14 | 6.14 | 3 of 9 (3.80)
S31V/F59I/S107T | ND ND ND | ND | 1 of 9 (3.80)
G26Q/L29A/K65F | ND 3.24 ND | 3.24 | 4 of 9 (4.51)
Y52C/S53I/D62P | ND ND ND | ND | 0 of 9
S63I/A101L/S107Q | ND ND ND | ND | 0 of 9
S63L/G99D/T104N | ND 5.79 5.27 | 5.53 | 6 of 9 (4.48)
N30Q/V50Y/G55M | 4.50 ND ND | 4.50 | 0 of 9
V50N/R100V/G103E | ND ND ND | ND | 0 of 9
G33K/F59S | ND ND ND | ND | 4 of 9 (4.20)
V50E/D54E/R100Q | ND ND ND | ND | 0 of 9
Y32V/S63C/S107F | ND 4.21 5.07 | 4.64 | 4 of 9 (4.53)
G61Y/A101G/G103W | ND ND ND | ND | 1 of 9 (2.31)
L29R/Y32W/S35K | 4.49 6.35 5.39 | 5.41 | 9 of 9 (4.69)
S53Q/R100G | ND ND ND | ND | 0 of 9
N30T/D62G/K65A | 3.05 1.74 2.98 | 2.59 | 1 of 9 (3.71)
I51C/Y52V/D54M | ND ND ND | ND | 0 of 9
G26L/F27A/V50I | ND 2.90 ND | 2.90 | 1 of 9 (3.18)
R56M/T58Q/K65T | 3.68 3.07 ND | 3.38 | 1 of 9 (3.40)
G33E/T58H/G103R | ND ND ND | ND | 0 of 9
S35T/R56Q/A101K | ND ND ND | ND | 1 of 9 (4.57)
S31L/D54R/A102Q | 5.71 3.99 ND | 4.85 | 1 of 9 (3.21)
G26I/T104E/S107N | ND ND ND | ND | 0 of 9
N30T/I34M/D62L | ND ND ND | ND | 0 of 9
Y60G/G99M/A102H | ND 5.19 4.44 | 4.81 | 3 of 9 (3.54)

For reference, 4 entries of the list once more:

changes	replicates, log10 nM	mean, log10 nM	control signals
T28R/Y52C/D106H	4.97 4.92 ND	4.94	0 of 9
S31V/F59I/S107T	ND ND ND	ND	1 of 9 (3.80)
Y52C/S53I/D62P	ND ND ND	ND	0 of 9
G61Y/A101G/G103W	ND ND ND	ND	1 of 9 (2.31)

As a blank, each scFv also met three strains without target: over library AAYL49, 15% of these pairings were detected, typically at 4.06 and seldom below 2.83. For each scFv, signals with the empty controls are counted beside the result, with their mean in brackets.

Source: Engelhart et al. 2022 (doi:10.1038/s41597-022-01779-4), MIT Lincoln Laboratory and A-Alpha Bio; data file from the FLAb repository.